# Target: Norepinephrine transporter (Rattus norvegicus, UniProt Q9WTR4)
# By UniProt entry, the sequences of proteins in these tests, tags left out.
# UniProt Q9WTR4, whole entry: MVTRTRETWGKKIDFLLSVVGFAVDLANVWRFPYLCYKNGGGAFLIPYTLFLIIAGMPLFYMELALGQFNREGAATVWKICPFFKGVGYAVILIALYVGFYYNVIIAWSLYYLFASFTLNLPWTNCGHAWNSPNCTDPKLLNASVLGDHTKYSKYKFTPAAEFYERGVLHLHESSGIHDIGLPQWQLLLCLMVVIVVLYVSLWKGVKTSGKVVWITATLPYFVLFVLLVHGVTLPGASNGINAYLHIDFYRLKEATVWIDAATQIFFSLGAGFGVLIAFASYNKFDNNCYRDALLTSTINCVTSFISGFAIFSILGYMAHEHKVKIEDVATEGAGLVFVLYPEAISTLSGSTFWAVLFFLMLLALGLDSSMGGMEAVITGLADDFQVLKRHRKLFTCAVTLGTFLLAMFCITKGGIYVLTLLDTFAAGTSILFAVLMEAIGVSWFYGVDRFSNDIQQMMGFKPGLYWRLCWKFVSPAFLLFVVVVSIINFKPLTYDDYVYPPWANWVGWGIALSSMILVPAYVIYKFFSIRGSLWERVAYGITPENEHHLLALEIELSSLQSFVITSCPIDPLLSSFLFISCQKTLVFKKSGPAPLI
# Assay: Inhibition of rat brain NET assessed as reduction of [3H]-NE re-uptake preincubated for 30 mins followed by [3H]-NE addition measured after 5 mins by scintillation counting
compound,measurement,value
NC(=O)C[S+]([O-])C(c1ccccc1)c1ccccc1 (stereo unspecified) [MODAFINIL],IC50,> 10 µM

# — ChEMBL document CHEMBL4219032, “Triple Reuptake Inhibitors as Potential Therapeutics for Depression and Other Disorders: Design Paradigm and Developmental Challenges” (J Med Chem, 2018)
